{"sequences": {"note": "By UniProt entry, the sequences of proteins in these tests, tags left out.", "UniProt Q96RR4, whole entry": "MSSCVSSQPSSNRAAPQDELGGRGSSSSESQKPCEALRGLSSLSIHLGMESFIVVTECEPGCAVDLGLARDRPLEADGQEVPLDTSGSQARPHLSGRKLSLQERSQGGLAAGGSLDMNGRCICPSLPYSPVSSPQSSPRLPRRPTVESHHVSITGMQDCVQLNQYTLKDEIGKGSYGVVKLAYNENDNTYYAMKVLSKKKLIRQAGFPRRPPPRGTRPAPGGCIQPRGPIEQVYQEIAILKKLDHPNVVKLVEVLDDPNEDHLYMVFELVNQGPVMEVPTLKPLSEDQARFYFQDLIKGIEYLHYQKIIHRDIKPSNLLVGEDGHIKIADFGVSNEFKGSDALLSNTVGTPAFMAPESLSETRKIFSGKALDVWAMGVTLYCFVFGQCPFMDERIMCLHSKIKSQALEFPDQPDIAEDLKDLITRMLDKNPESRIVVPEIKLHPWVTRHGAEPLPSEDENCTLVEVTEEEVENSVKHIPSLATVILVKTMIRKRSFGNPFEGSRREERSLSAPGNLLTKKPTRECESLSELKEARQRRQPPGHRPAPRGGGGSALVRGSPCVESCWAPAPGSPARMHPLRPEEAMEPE"}, "source": "patent US12158399B2", "about": "“CaMKK2 inhibitor compositions and methods of using the same” (Duke University, priority 2016, dated 2024)", "key": {"MMTV-PyMT mammary tumor": {"test_system": "MMTV-PyMT mammary tumor", "settings": "MMTV-PyMT mice treated daily, indicated doses"}, "CaMKK2": {"biological_target": "CaMKK2 (Homo sapiens, UniProt Q96RR4)", "settings": "cited from earlier work"}}}
{"compound": "O=C(O)c1ccc2c3c1cccc3c(=O)n1c3ccccc3nc21", "note": "[STO-609]", "values": [{"measurement": "tumor growth (fold change in tumor volume)", "setting": "MMTV-PyMT mammary tumor", "value": "inhibited in dose responsive manner"}, {"measurement": "affinity for CaMKK2 relative to CaMKK1", "setting": "CaMKK2", "value": "approximately 5 fold"}]}
